Source: patent US20160025730A1, “METHODS OF SELECTING COMBINATION THERAPY FOR COLORECTAL CANCER PATIENTS” (NESTEC S.A., priority 2013, published 2016)

Experiments:
HER2 = test: CEER total HER2 expression level; format: cell-based, human; settings: Lim1215 cells, 24 h, assay range 390-25000
HER3 [1] = test: CEER total HER3 expression level; format: cell-based, human; settings: Lim1215 cells, 24 h, assay range 390-25000
RSK = test: CEER phospho RSK level; format: cell-based, human; settings: Lim1215 cells, 24 h, assay range 2.56-100
Excerpt: These were complemented by ErbB heterodimerization assays using CEER.

AKT = test: CEER phospho AKT level; settings: Lim1215 cells, 24 h, assay range 1.02-40
ERK = test: CEER phospho ERK level; settings: Lim1215 cells, 24 h, assay range 1.02-100
MEK = test: CEER phospho MEK level; settings: Lim1215 cells; 24 h; series 2 (FIG. 2; Control 38.0); assay range 1.02-100
HER1 = test: CEER total HER1 expression level; settings: Lim1215 cells, 24 h, assay range 7.8-500
HER3 [2] = test: CEER phospho HER3 activation level; settings: Lim1215 cells, 24 h, assay range 12.8-1500
HER2:HER3 = test: CEER ErbB heterodimerization assay, HER2:HER3 dimer; settings: Lim1215 cells, 24 h, assay range 50-1500
HER1:HER2 = test: CEER ErbB heterodimerization assay, HER1:HER2 dimer; settings: Lim1215 cells, 24 h, assay range 7.8-1000
HER1:HER3 = test: CEER ErbB heterodimerization assay, HER1:HER3 dimer; settings: Lim1215 cells, 24 h, assay range 200-20000

trastuzumab
Total HER2 (0.2 ug) (HER2; series 2 (FIG. 2; Control 4212)): 884
Total HER2 (0.2 ug) (HER2; series 3 (FIG. 3; control 3025)): 592
Total HER3 (0.2 ug) (HER3 [1]; series 2 (FIG. 2; Control 7757)): 9488
Total HER3 (0.2 ug) (HER3 [1]; series 3 (FIG. 3; control 4282)): 3743
Phos RSK (10 ug) (RSK; series 2 (FIG. 2; Control 289 >ULOQ)): 75.8 pg/µg
Phos RSK (10 ug) (RSK; series 3 (FIG. 3; control […] >ULOQ)): 60.2 pg/µg
Phos AKT (10 ug) (AKT; series 2 (FIG. 2; Control 9.6)): 0.79 pg/µg
Phos AKT (10 ug) (AKT; series 3 (FIG. 3; control 11.4)): 2.6 pg/µg
Phos ERK (10 ug) (ERK; series 2 (FIG. 2; Control […])): 2.6 pg/µg
Phos ERK (10 ug) (ERK; series 3 (FIG. 3; control 5.3)): 3.6 pg/µg
Phos MEK (10 ug) (MEK): 19.8 pg/µg
Total HER1 (1 ug) (HER1; series 2 (FIG. 2; Control 171.4)): 184.2
Total HER1 (1 ug) (HER1; series 3 (FIG. 3; control 137.2)): 148.4
Phos HER3 (10 ug) (HER3 [2]; series 2 (FIG. 2; Control 236)): 255
Phos HER3 (10 ug) (HER3 [2]; series 3 (FIG. 3; control 573)): 754
ErbB Dimer Formation HER2:HER3 (2 ug) (HER2:HER3; series 2 (FIG. 2; Control 250.9)): 261.7
ErbB Dimer Formation HER2:HER3 (2 ug) (HER2:HER3; series 3 (FIG. 3; control 211.8)): 290.9
ErbB Dimer Formation HER1:HER2 (2 ug) (HER1:HER2; series 2 (FIG. 2; Control 128.5)): 42.4
ErbB Dimer Formation HER1:HER2 (2 ug) (HER1:HER2; series 3 (FIG. 3; control 46.0)): 30.6
ErbB Dimer Formation HER1:HER3 (0.5 ug) (HER1:HER3; series 2 (FIG. 2; Control 387)): 487
ErbB Dimer Formation HER1:HER3 (0.5 ug) (HER1:HER3; series 3 (FIG. 3; control 398)): 374
